Measurements: patent publication US8568699B2, “Soft anticholinergic zwitterions” (priority 2005, dated 2013)

Target: M3 muscarinic receptors (guinea pig ileum) (Cavia porcellus, UniProt H0W1Z3)
Experiment: Guinea pig ileum contraction assay, pA2
Conditions: Table 6; carbachol as agonist, Schild plot; 4-6 ileum strips, mean ± SD

Structure (SMILES)	pA2
C[N@@+]1(CC(=O)[O-])CC[C@H](OC(=O)[C@@](O)(c2ccccc2)C2CCCC2)C1	<4
C[N@+]1(CC(=O)[O-])CC[C@@H](OC(=O)[C@@](O)(c2ccccc2)C2CCCC2)C1	5.69 ± 0.13
C[N@@+]1(CC(=O)[O-])CC[C@H](OC(=O)[C@](O)(c2ccccc2)C2CCCC2)C1	7.33 ± 0.28
